Data as given in US20120330012A1, “Novel Tricyclic Compounds” (ABBOTT LABORATORIES, priority 2011, published 2012).

Chains of the proteins cited; added tags and fusions are not shown. Residues count along the entry.
UniProt P52333, 811-1103: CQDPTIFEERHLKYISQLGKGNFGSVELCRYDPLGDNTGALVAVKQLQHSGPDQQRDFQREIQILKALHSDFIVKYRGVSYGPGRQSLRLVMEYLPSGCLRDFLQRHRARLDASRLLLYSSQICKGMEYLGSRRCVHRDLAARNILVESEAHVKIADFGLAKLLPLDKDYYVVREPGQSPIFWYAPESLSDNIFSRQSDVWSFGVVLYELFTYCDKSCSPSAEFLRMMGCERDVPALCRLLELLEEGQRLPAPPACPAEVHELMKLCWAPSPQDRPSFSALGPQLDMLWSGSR

Biological target: T1, Jak3 (Homo sapiens, UniProt P52333)
T1 construct: Jak3 enzyme (aa 811-1103); expressed in SF9 cells as a GST fusion; GST; made in house; host or cells: SF9 insect cells
Experiment: In vitro Jak3 kinase activity measured by trFRET
Format: biochemical
Conditions: Jak3 enzyme aa 811-1103, 0.001 mM ATP
Source text: In Vitro Jak3 Kinase Activity Measured by Time-Resolved Fluorescence Resonance Energy Transfer (trFRET)

IC50: 100 to 1000 nM
Compound: c1cc2c(ncn3cnc(C4CCCCC4)c23)[nH]1 [Example #1, 1-Cyclohexyl-7H-imidazo[1,5-c]pyrrolo[3,2-e]pyrimidine]
